Results published in patent US20200069772A1, “METHODS OF TREATING EARLY RHEUMATOID ARTHRITIS” (BRISTOL-MYERS SQUIBB COMPANY, priority 2014, published 2020).

Assays:
[1] = in vivo; cited from earlier work
patients with early RA [2] = experiment: AVERT trial: contrast MRI of wrist and hand (synovitis, osteitis, erosion score); format: in vivo, human; details: at 12 months; FIG. 7A-C
Experimental: All patients underwent contrast magnetic resonance imaging (MRI) of the wrist and hand of the major affected upper limb at baseline and at 6, 12, 18 and 24 months.
Adjusted mean MRI change from baseline and standard error was calculated for all arms using a longitudinal repeated measures model. Safety assessments were based on the intent-to-treat population (patients who received≥1 dose of study medication). Analysis of other secondary endpoints is described in the supplementary information.

patients with early RA [3] = experiment: AVERT phase 3b randomized active-controlled trial: signs and symptoms (DAS-defined remission, other remission and ACR measures); format: in vivo, human
From the text: Assessing Very Early Rheumatoid Arthritis Treatment (AVERT) was a phase 3b, randomized, active-controlled trial of 24 months, with a 12-month, double-blind treatment period.
The study population included adults (≥18 years old) with active clinical synovitis of ≥2 joints for ≥8 weeks, with persistent symptoms for ≤2 years; Disease Activity Score (DAS)28 (C-reactive protein [CRP])≥3.2 and anti-citrullinated peptide (CCP)-2 antibody positivity. […] Patients receiving oral corticosteroids were required to be on a stable dose (≤10 mg/day for ≥4 weeks) at initiation and to maintain that dose until Month 12.
SC abatacept was administered at 125 mg/week. […] All patients received concomitant folic acid therapy.
Patients with DAS28 (CRP)≥3.2 were discontinued.
For the purpose of this study, DAS-defined remission was DAS28 (CRP)<2.6.
Exploratory endpoints included: Other remission rates (Simplified Disease Activity Index [SDAI; ≤3.3], Clinical Disease Activity Index [CDAI; ≤2.8] and Boolean remission [28-joint tender joint count ≤1 and 28-joint swollen joint count ≤1 and patient global assessment of disease activity [0-10 cm]≤1 and high-sensitivity CRP≤1 mg/dL]), American College of Rheumatology (ACR) responses and Major Clinical Response (ACR 70 response for 6 months at any time period) in each arm.
Co-primary endpoints were tested in hierarchical fashion. […] All patients who discontinued prior to completing the treatment or withdrawal period were imputed as non-responders for the Month 12 or 18 analyses.
Endpoints of Disease Activity Score (DAS)-defined remission, SDAI remission, CDAI remission, Boolean remission, ACR 20/50/70 response and Major Clinical Response over time were summarized using descriptive statistics (with 95% confidence intervals at each time point). Missing remission data not due to premature discontinuation and not at Day 1 of the treatment period or at Day 169 of the withdrawal period was imputed as a remission if the missing value occurred between two observed remissions. Missing ACR response data not due to premature discontinuation and not at Day 1 of the treatment period or at Day 169 of the withdrawal period was imputed as an ACR response if the missing value occurred between two observed ACR responses.
For each treatment arm, a post hoc analysis was performed of mean baseline characteristics for patients who achieved DAS-defined remission at only Month 12 and at both Months 12 and 18, and of the proportions of patients who achieved DAS-defined remission based on these characteristics. An analysis of the overall treatment effect in mean change from baseline in DAS28 (CRP) (including data up to Month 12 of the treatment period) was performed for each treatment arm. Overall treatment effect and treatment differences between the three arms were obtained using a longitudinal repeated measures model including fixed categorical effects of treatment, months, and prior corticosteroid use as well as the continuous fixed covariate of baseline value. An unstructured covariance matrix was used to represent the correlation of the repeated measures within each subject.

patients with early RA [4] = experiment: AVERT trial: HAQ-DI response (≥0.3 points reduction from baseline); format: in vivo, human
[5] = treatment period, compared subgroups not stated

abatacept [Abatacept monotherapy]
half-life [1]: 14.3 days
decreases from baseline in synovitis and osteitis scores by MRI, compared with MTX (patients with early RA [2]): numerically greater decreases
other remission endpoints (SDAI, CDAI, Boolean), ACR responses and major clinical response versus MTX over time (patients with early RA [3]; FIG. 4A-D and FIG. 5A-E): numerically higher
proportion of patients in DAS-defined remission (DAS28 [CRP]<2.6) at Month 12 (patients with early RA [3]; Month 12 of treatment period, patients with baseline DAS28 (CRP), discontinuations imputed as non-responders): 42.5%
proportion of patients in DAS-defined remission (DAS28 [CRP]<2.6) at both Months 12 and 18 (patients with early RA [3]; after withdrawal of all RA therapy at Month 12, only patients with DAS28 (CRP) available at baseline): 12.4%
patients remaining in DAS-defined remission at Month 18 (patients with early RA [3]; of the patients who entered the withdrawal period in DAS-defined remission at Month 12): 28%
Proportion of Patients with DAS-defined Remission (DAS28 [CRP] < 2.6) at Both Months 12 and 18 (patients with early RA [3]; post hoc subgroup: baseline DAS28 (CRP) >Median (5.4)): 2/57 (3.5) %
Proportion of Patients with DAS-defined Remission (DAS28 [CRP] < 2.6) at Both Months 12 and 18 (patients with early RA [3]; post hoc subgroup: baseline DAS28 (CRP) Missing): 0/3 (0) %
Proportion of Patients with DAS-defined Remission (DAS28 [CRP] < 2.6) at Both Months 12 and 18 (patients with early RA [3]; post hoc subgroup: baseline DAS28 (CRP) ≤Median (5.4)): 12/56 (21.4) %
Proportion of Patients with DAS-defined Remission (DAS28 [CRP] < 2.6) at Both Months 12 and 18 (patients with early RA [3]; post hoc subgroup: baseline Erosion >Median (4.5)): 4/44 (9.1) %
Proportion of Patients with DAS-defined Remission (DAS28 [CRP] < 2.6) at Both Months 12 and 18 (patients with early RA [3]; post hoc subgroup: baseline Erosion >Q1 (1.5)-Q2 (4.5)): 5/30 (16.7) %
Proportion of Patients with DAS-defined Remission (DAS28 [CRP] < 2.6) at Both Months 12 and 18 (patients with early RA [3]; post hoc subgroup: baseline Erosion >Q2 (4.5)-Q3 (8.5)): 3/23 (13.0) %
Proportion of Patients with DAS-defined Remission (DAS28 [CRP] < 2.6) at Both Months 12 and 18 (patients with early RA [3]; post hoc subgroup: baseline Erosion >Q3 (8.5)): 1/21 (4.8) %
Proportion of Patients with DAS-defined Remission (DAS28 [CRP] < 2.6) at Both Months 12 and 18 (patients with early RA [3]; post hoc subgroup: baseline Erosion Missing): 0/14 (0) %
Proportion of Patients with DAS-defined Remission (DAS28 [CRP] < 2.6) at Both Months 12 and 18 (patients with early RA [3]; post hoc subgroup: baseline Erosion ≤Median (4.5)): 10/58 (17.2) %
Proportion of Patients with DAS-defined Remission (DAS28 [CRP] < 2.6) at Both Months 12 and 18 (patients with early RA [3]; post hoc subgroup: baseline Erosion ≤Q1 (1.5)): 5/28 (17.9) %
Proportion of Patients with DAS-defined Remission (DAS28 [CRP] < 2.6) at Both Months 12 and 18 (patients with early RA [3]; post hoc subgroup: baseline HAQ-DI >Median (1.375)): 3/54 (5.6) %
Proportion of Patients with DAS-defined Remission (DAS28 [CRP] < 2.6) at Both Months 12 and 18 (patients with early RA [3]; post hoc subgroup: baseline HAQ-DI Missing): 1/3 (33.3) %
Proportion of Patients with DAS-defined Remission (DAS28 [CRP] < 2.6) at Both Months 12 and 18 (patients with early RA [3]; post hoc subgroup: baseline HAQ-DI ≤Median (1.375)): 10/59 (16.9) %
Proportion of Patients with DAS-defined Remission (DAS28 [CRP] < 2.6) at Both Months 12 and 18 (patients with early RA [3]; post hoc subgroup: baseline Osteitis >Median (0.5)): 4/55 (7.3) %
Proportion of Patients with DAS-defined Remission (DAS28 [CRP] < 2.6) at Both Months 12 and 18 (patients with early RA [3]; post hoc subgroup: baseline Osteitis >Q1 (0)-Q2 (0.5)): 1/4 (25.0) %
Proportion of Patients with DAS-defined Remission (DAS28 [CRP] < 2.6) at Both Months 12 and 18 (patients with early RA [3]; post hoc subgroup: baseline Osteitis >Q2 (0.5)-Q3 (5)): 2/27 (7.4) %
Proportion of Patients with DAS-defined Remission (DAS28 [CRP] < 2.6) at Both Months 12 and 18 (patients with early RA [3]; post hoc subgroup: baseline Osteitis >Q3 (5)): 2/28 (7.1) %
Proportion of Patients with DAS-defined Remission (DAS28 [CRP] < 2.6) at Both Months 12 and 18 (patients with early RA [3]; post hoc subgroup: baseline Osteitis Missing): 0/14 (0) %
Proportion of Patients with DAS-defined Remission (DAS28 [CRP] < 2.6) at Both Months 12 and 18 (patients with early RA [3]; post hoc subgroup: baseline Osteitis ≤Median (0.5)): 10/47 (21.3) %
Proportion of Patients with DAS-defined Remission (DAS28 [CRP] < 2.6) at Both Months 12 and 18 (patients with early RA [3]; post hoc subgroup: baseline Osteitis ≤Q1 (0)): 9/43 (20.9) %
Proportion of Patients with DAS-defined Remission (DAS28 [CRP] < 2.6) at Both Months 12 and 18 (patients with early RA [3]; post hoc subgroup: baseline Pain (100 mm VAS) >Median (62)): 5/55 (9.1) %
Proportion of Patients with DAS-defined Remission (DAS28 [CRP] < 2.6) at Both Months 12 and 18 (patients with early RA [3]; post hoc subgroup: baseline Pain (100 mm VAS) Missing): 1/3 (33.3) %
Proportion of Patients with DAS-defined Remission (DAS28 [CRP] < 2.6) at Both Months 12 and 18 (patients with early RA [3]; post hoc subgroup: baseline Pain (100 mm VAS) ≤Median (62)): 8/58 (13.8) %
Proportion of Patients with DAS-defined Remission (DAS28 [CRP] < 2.6) at Both Months 12 and 18 (patients with early RA [3]; post hoc subgroup: baseline Synovitis >Median (4.5)): 5/50 (10.0) %
Proportion of Patients with DAS-defined Remission (DAS28 [CRP] < 2.6) at Both Months 12 and 18 (patients with early RA [3]; post hoc subgroup: baseline Synovitis >Q1 (2)-Q2 (4.5)): 5/28 (17.9) %
Proportion of Patients with DAS-defined Remission (DAS28 [CRP] < 2.6) at Both Months 12 and 18 (patients with early RA [3]; post hoc subgroup: baseline Synovitis >Q2 (4.5)-Q3 (8.5)): 4/33 (12.1) %
Proportion of Patients with DAS-defined Remission (DAS28 [CRP] < 2.6) at Both Months 12 and 18 (patients with early RA [3]; post hoc subgroup: baseline Synovitis >Q3 (8.5)): 1/17 (5.9) %
Proportion of Patients with DAS-defined Remission (DAS28 [CRP] < 2.6) at Both Months 12 and 18 (patients with early RA [3]; post hoc subgroup: baseline Synovitis Missing): 0/14 (0) %
Proportion of Patients with DAS-defined Remission (DAS28 [CRP] < 2.6) at Both Months 12 and 18 (patients with early RA [3]; post hoc subgroup: baseline Synovitis ≤Median (4.5)): 9/52 (17.3) %
Proportion of Patients with DAS-defined Remission (DAS28 [CRP] < 2.6) at Both Months 12 and 18 (patients with early RA [3]; post hoc subgroup: baseline Synovitis ≤Q1 (2)): 4/24 (16.7) %
Proportion of Patients with DAS-defined Remission (DAS28 [CRP] < 2.6) at Both Months 12 and 18 (patients with early RA [3]; post hoc subgroup: symptom duration >6 Months): 3/45 (6.7) %
Proportion of Patients with DAS-defined Remission (DAS28 [CRP] < 2.6) at Both Months 12 and 18 (patients with early RA [3]; post hoc subgroup: symptom duration >Median (0.37 years)): 7/66 (10.6) %
Proportion of Patients with DAS-defined Remission (DAS28 [CRP] < 2.6) at Both Months 12 and 18 (patients with early RA [3]; post hoc subgroup: symptom duration ≤6 Months): 11/71 (15.5) %
Proportion of Patients with DAS-defined Remission (DAS28 [CRP] < 2.6) at Both Months 12 and 18 (patients with early RA [3]; post hoc subgroup: symptom duration ≤Median (0.37 years)): 7/50 (14.0) %
estimated treatment difference (95% CI) versus MTX in change from baseline in DAS28 (CRP) (patients with early RA [3]; post hoc, overall treatment effect over the 12 months of the treatment period): -0.26 (−0.11, −0.48)
DAS-defined remission rates versus MTX over time (patients with early RA [3]; treatment period, FIG. 4A, from Day 57 (abatacept plus MTX), at most other time points (monotherapy)): numerically higher
time with DAS28 (CRP) <2.6 during the treatment period (first value of 'x vs y') (patients with early RA [3]; [5]): 8.9 months
time with DAS28 (CRP) <2.6 during the treatment period (second value of 'x vs y') (patients with early RA [3]; [5]): 6.6 months
HAQ-DI Response (≥0.3), proportion of patients (patients with early RA [4]; Month 12): 61 (52.6) %
HAQ-DI Response (≥0.3), proportion of patients (patients with early RA [4]; Month 18): 19 (16.4) %
